{"source": "patent US20090023700A1", "about": "“NEUROPROTECTIVE TREATMENTS” (University of Louisville Research Foundation, priority 2007, published 2009)", "system": "T9 contusive spinal cord injury", "test": "Grid-walking sensorimotor test after T9 contusion", "details": "100 μM, 28 d L5/6 infusion started 4 h after contusion; p<0.0000025 per ANOVA", "data": [{"smiles": "O.O.O.OO.OO.[K+].[OH-].[V].c1cnc2c(c1)ccc1cccnc12", "note": "[bpV(phen), potassium bisperoxo(1,10-phenanthroline)oxovanadate (V)]", "values": [{"measurement": "grid-walking performance versus PBS group, weekly tests", "result": "performed better than the PBS group at all postinjury times"}]}]}
